The list shows a part of the results.
test system: A. baumannii ATCC 17978; experiment: relative growth (fraction of control); higher = less inhibition; settings: 50 µM

Structure (SMILES)	relative growth
COC(=O)[C@@H](Cc1ccccc1)N[C@H](/C=C/C1CC1)[C@@H](O)CCn1cc(-c2ccc(C(=O)NO)cc2)nn1	1.01
C=CC[C@H](CC(=O)N(CCO)Cc1ccccc1)C(=O)N[C@@H](COC(=O)[C@H](CC=C)CC(=O)OC(C)(C)C)Cc1c[nH]c2ccccc12	1.22
COCCOC(=O)N1C(=O)[C@@]2(c3cc(C#CCCO)ccc31)[C@H](c1ccccc1OCCO)N1[C@H](c3ccccc3)[C@H](c3ccccc3)OC(=O)[C@H]1[C@@H]2C(=O)NC[C@H](O)c1ccccc1	1.24
COc1ccc(-c2oc3cc(OC)c(OC)c(OC)c3c(=O)c2OC)cc1OC	1.1
NC(=O)C[C@H](N)C(=O)O.O	0.894
CC(=O)OCC1=C(C(=O)[O-])N2C(=O)[C@@H](NC(=O)CSc3ccncc3)[C@H]2SC1.[Na+]	0.895
C[C@H]1CN([C@@H](C)CO)S(=O)(=O)c2ccc(C#Cc3cccc(F)c3)cc2O[C@H]1CN(C)C(=O)CN1CCOCC1	0.883
C[C@@H](O)C#Cc1ccc2c(c1)O[C@@H](CN(C)C(=O)c1ccncc1)[C@@H](C)CN([C@@H](C)CO)S2(=O)=O	1
O=C(O)c1ccc[n+]([O-])c1	1.04
CC(C)(CO)C(O)C(=O)NCCC(=O)NCCSSCCNC(=O)CCNC(=O)C(O)C(C)(C)CO (stereo not drawn)	0.986
O=C(C[C@@H]1CC[C@@H]2[C@H](COC[C@@H](O)CN2S(=O)(=O)c2ccc(F)cc2)O1)NCCN1CCCCC1	0.988
Cc1cccc(C)c1OCC(C)N.Cl (stereo not drawn)	1.1
O=C(NCC(F)(F)F)[C@@H]1c2ccccc2C(=O)N(Cc2cc(C(F)(F)F)cc(C(F)(F)F)c2)[C@H]1c1ccc(CO)cc1	0.985
O=C(CCCCCNC(=O)OCc1ccc(CN(C(=O)Nc2ccccc2)[C@@H](Cc2ccccc2)Cn2cc(-c3ccccn3)nn2)cc1)NO	0.94
Nc1nonc1/C(=N/O)N1CCCCC1	0.99
CC(C)NC(=O)N(C)C[C@H]1Oc2cc(C#Cc3ccc(F)cc3)ccc2S(=O)(=O)N([C@@H](C)CO)C[C@@H]1C	1.06
O=C(CN1CCOCC1)NCC[C@H]1CC[C@@H](NS(=O)(=O)c2ccc(F)cc2)[C@@H](CO)O1	1.11
C[C@H](NC(=O)C[C@H]1C=C[C@@H](NC(=O)CN2CCOCC2)[C@@H](CO)O1)c1ccccc1	0.989
O=C(NCCCN1CCOCC1)C(=O)NC1CC1	1
O=C(C[C@H]1CC[C@@H](NC(=O)Nc2ccc3c(c2)OCO3)[C@H](CO)O1)NCCCN1CCOCC1	0.928
O=P(O)(O)C(O)(Cn1ccnc1)P(=O)(O)O	0.927
C[n+]1cc2c3c(ccc2c2ccc4cc5c(cc4c21)OCO5)OCO3.[Cl-]	0.828

Structure (SMILES)	relative growth
Cc1ccc(C)c(Cc2cc(Cl)ccc2Cl)c1	1.1
CC(C)(CO)[C@@H](O)C(=O)NCCC(=O)O	0.93
O=C(C[C@@H]1CC[C@@H](NC(=O)Cc2ccccn2)[C@@H](CO)O1)NCCCN1CCOCC1	1.02
O=C(N[C@@H]1CC=CC[C@H](CC(=O)N(CCO)Cc2ccccc2)C(=O)NC[C@H](c2ccccc2)OC1=O)OCC1c2ccccc2-c2ccccc21	1.1
C[C@]12CCC3c4ccc(O)cc4CCC3C1CCC2=O (stereo partly drawn)	1.07
CCOC(=O)c1c(C)cc(OC)cc1O	1.19
O=C(CCBr)N1CCN(C(=O)CCBr)CC1	1.19
N[C@H]1CONC1=O	0.933
CCCCC1C(=O)N(c2ccccc2)N(c2ccc(O)cc2)C1=O (stereo not drawn)	1.03
CCN1CCC[C@@H]1CNC(=O)c1cc(S(N)(=O)=O)ccc1OC	1.02
CCCc1nc(C)c2c(=O)[nH]c(-c3cc(S(=O)(=O)N4CCN(CC)CC4)ccc3OCC)nn12.Cl	1.22
Fc1ccc(-c2nc3ccc4ccccc4c3c3c2CCC3)cc1	1.15
COc1cc(OC)c2ccc(=O)oc2c1	0.768
COc1ccc(C#Cc2ccc3c(c2)[C@]2(C(=O)N3)[C@H](C(=O)N3CCc4cc(OC)c(OC)cc4C3)[C@H]3C(=O)O[C@H](c4ccccc4)[C@H](c4ccccc4)N3[C@@H]2c2ccccc2OCCO)cc1	1.22
CC(N)O.Cc1cc(CC(C)CC(C)(C)C)n(O)c(=O)c1 (stereo not drawn)	0.152
CO[C@@H]1CN(C)C(=O)c2ccc(NC(=O)C3CCOCC3)cc2OC[C@H](C)N(Cc2cccnc2)C[C@H]1C	1.23
CN(C)CCCN1c2ccccc2CCc2ccc(Cl)cc21.Cl	1.1
CC(=O)Nc1ccc(OC(=O)c2ccccc2O)cc1	1.26
Cc1c(C(N)=O)sc2[nH]cnc(=O)c12	1.02
Cc1ccc2c(c1)/C(=C/c1ccncc1)c1cc3ccccc3nc1-2	1.2
CO[C@H]1CN(C)C(=O)c2cc(NC(=O)C3CCOCC3)ccc2OC[C@@H](C)N(Cc2cccnc2)C[C@H]1C	1.12
O=c1c(O)c(-c2ccc(O)cc2)oc2cc(O)cc(O)c12	0.958

Structure (SMILES)	relative growth
CNC(=O)C[C@H]1CC[C@H]2[C@@H](COC[C@@H](O)CN2C(=O)c2ccccn2)O1	0.908
CN1CCN(S(=O)(=O)c2ccc(CN)cc2)CC1	1.04
O=c1cn[nH]c(Nc2ccccc2)n1	0.91
COc1ccccc1CN1C(=O)c2ccccc2[C@@]2(Cc3ccccc3N(C3CC3)C2=O)[C@@H]1c1ccc(CO)cc1	0.915
CC(C)[N+]1(C)C2CC[C@H]1C[C@@H](OC(=O)C(CO)c1ccccc1)C2.[Br-] (stereo partly drawn)	0.996
O=C(Cn1ccc([N+](=O)[O-])n1)Nc1cccnc1	1.09
O=C(C[C@H]1CC[C@@H]2[C@H](COC[C@H](O)CN2C(=O)Nc2ccc(Cl)c(Cl)c2)O1)NCc1ccc(Cl)c(Cl)c1	0.925
CCCNC(=O)NS(=O)(=O)c1ccc(Cl)cc1	1.3
C[C@@H]1CN([C@H](C)CO)S(=O)(=O)c2ccc(-c3ccc(C#N)cc3)cc2O[C@@H]1CN(C)C(=O)CN(C)C	1.02
O=C(O)C[C@H]1CC[C@H]2[C@@H](COC[C@@H](O)CN2S(=O)(=O)c2ccc(F)cc2)O1	0.899
CCCCCCOC(=O)/N=C(\N)c1ccc(NCc2nc3cc(C(=O)N(CCC(=O)OCC)c4ccccn4)ccc3n2C)cc1.CS(=O)(=O)O	1.07
O=C(O)CN(CCN(CC(=O)O)CC(=O)O)CC(=O)O	0.984
OCCC12CC3CC(CC(C3)C1)C2	0.936
C[C@@H]1CN([C@H](C)CO)S(=O)(=O)c2ccc(Br)cc2O[C@H]1CN(C)Cc1cccc(C(=O)O)c1	0.962
CC(CN1c2ccccc2Sc2ccccc21)N(C)C.Cl (stereo not drawn)	0.995
NC(=O)CNC(=O)c1cccc(Cl)c1	0.988
CCCCC(CC)COC(=O)CC(C(=O)OCC(CC)CCCC)S(=O)(=O)[O-].[Na+] (stereo not drawn)	1.14
CC/N=C1\S[C@@H](CC(=O)NC)C(=O)N1CC	1.09
Fc1cccc(CSCc2c(F)cccc2Cl)c1	0.954
COCC(=O)Nc1ccc2c(c1)C(=O)N(C)C[C@@H](OC)[C@@H](C)CN(Cc1ccccc1OC)[C@@H](C)CO2	0.917
O=C(O)c1cnc(N2CCCC2)nc1	0.972
NC(=O)C[C@H](N)C(=O)O	0.955

Structure (SMILES)	relative growth
CO/N=C(/C(=O)NC1C(=O)N2C(C(=O)[O-])=C(COC(N)=O)CSC12)c1ccco1.[Na+] (stereo not drawn)	0.197
Cc1cc(-c2ccc3ccccc3n2)nc2ccc3ccccc3c12	0.91
CCC(NC(C)C)C(O)c1ccc(O)c(O)c1.CS(=O)(=O)O (stereo not drawn)	0.965
C/C=C/c1ccc2c(c1)O[C@H](CN(C)Cc1ccc(C(=O)O)cc1)[C@H](C)CN([C@H](C)CO)S2(=O)=O	0.954
CO[C@H]1CN(C)C(=O)c2ccc(NC(=O)c3ccc(F)cc3)cc2OC[C@H](C)N(C(=O)CN(C)C)C[C@@H]1C	1.11
C=CCC[C@@H](Cc1ccc(F)cc1)C(=O)O[C@H](CNC(=O)[C@@H](CC=C)CC(=O)N[C@@H](CO)Cc1ccccc1)c1ccccc1	1.27
FC(F)(F)c1ccccc1/N=C1\CCCc2ccccc21	0.695
O=C(C[C@@H]1C[C@@H]2c3cc(NC(=O)NC4CCCC4)ccc3O[C@@H]2[C@@H](CO)O1)NCc1ccc(-c2ccccc2)cc1	0.96
CC(=O)OC/C=C(\C)CC/C=C(\C)CC/C=C(\C)CC/C=C(\C)CC/C=C(\C)CC/C=C(\C)CC/C=C(\C)CC/C=C(\C)CCC=C(C)C	1.01
O=C(C[C@@H]1C=C[C@H](NC(=O)c2cnccn2)[C@@H](CO)O1)NCc1ccccc1F	1.05
CCCN(C)C[C@H]1Oc2cc(C#Cc3ccc(OC)cc3)ccc2S(=O)(=O)N([C@H](C)CO)C[C@H]1C	0.829
NCCCCCC(=O)O	0.866
CS(=O)(=O)O.CSc1ccc2c(c1)C(N1CCN(C)CC1)Cc1ccccc1S2 (stereo not drawn)	0.138
Cc1ccc(S(=O)(=O)N[C@H]2CC[C@@H](CC(=O)NCc3ccc(Cl)c(Cl)c3)O[C@@H]2CO)cc1	0.998
CC1=CC(=O)C2=C(C)CC[C@@H]3[C@H](OC(=O)[C@H]3C)[C@@H]12	0.91
CC1=C(C)C(=O)C(C(CCCCCC(=O)O)c2ccccc2)=C(C)C1=O (stereo not drawn)	1.16
CC(C)(C)OC(=O)CC[C@]1(C(=O)NCCN2CCOCC2)COC(c2ccc(OCCCO)cc2)=N1	1.06
C[C@H]1CN([C@@H](C)CO)C(=O)c2cc(C#Cc3cccc(F)c3)cnc2O[C@H]1CN(C)C(=O)C1CCOCC1	0.973
Cl.Cl.Cl.NCCCCNCCCN	0.858
COc1cccc(C#Cc2ccc3c(c2)O[C@@H](CN(C)C(C)=O)[C@H](C)CN([C@@H](C)CO)S3(=O)=O)c1	0.859
CC(=O)[C@@]1(O)CC[C@H]2[C@@H]3CCC4=CC(=O)CC[C@]4(C)[C@H]3CC[C@@]21C	0.97
O=C(C[C@@H]1C[C@H]2c3cc(NC(=O)c4ccc5c(c4)OCO5)ccc3O[C@H]2[C@H](CO)O1)NCc1ccccn1	1.04
